Measured values taken from ChEMBL document CHEMBL1137486, “N4-phenyl modifications of N2-(2-hydroxyl)ethyl-6-(pyrrolidin-1-yl)-1,3,5-triazine-2,4-diamines enhance glucocerebrosidase inhibition by small molecules with potential as chemical chaperones for Gaucher disease” (Bioorg Med Chem Lett, 2007).

Molecular target: T1, Lysosomal acid glucosylceramidase (Homo sapiens, UniProt P04062)
T1 sequence (P04062 whole entry): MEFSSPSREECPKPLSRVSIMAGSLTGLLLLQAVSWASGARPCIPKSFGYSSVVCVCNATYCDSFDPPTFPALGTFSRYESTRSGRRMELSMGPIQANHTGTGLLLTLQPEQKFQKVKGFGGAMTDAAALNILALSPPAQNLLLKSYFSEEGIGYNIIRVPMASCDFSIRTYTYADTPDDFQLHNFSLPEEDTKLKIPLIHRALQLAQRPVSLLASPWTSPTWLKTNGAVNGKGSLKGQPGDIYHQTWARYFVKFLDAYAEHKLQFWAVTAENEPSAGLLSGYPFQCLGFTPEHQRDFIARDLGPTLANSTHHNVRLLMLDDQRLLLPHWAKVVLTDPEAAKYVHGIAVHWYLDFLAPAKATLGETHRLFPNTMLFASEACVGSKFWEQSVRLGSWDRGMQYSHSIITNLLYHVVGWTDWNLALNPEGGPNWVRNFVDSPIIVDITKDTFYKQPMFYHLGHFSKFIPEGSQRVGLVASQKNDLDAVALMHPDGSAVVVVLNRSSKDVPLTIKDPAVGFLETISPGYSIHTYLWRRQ
Assay: Inhibition of glucocerebrosidase

SMILES: COc1ccc(Cl)cc1Nc1nc(NCCO)nc(N2CCCC2)n1
- IC50: 700 nM
